BindingDB's records for patent US10376513 (Incyte Holdings Corporation, 2019)

Molecular target: T1, Phosphatidylinositol 4,5-bisphosphate 3-kinase catalytic subunit delta isoform (Homo sapiens, UniProt O00329)
T1 sequence (O00329 whole entry): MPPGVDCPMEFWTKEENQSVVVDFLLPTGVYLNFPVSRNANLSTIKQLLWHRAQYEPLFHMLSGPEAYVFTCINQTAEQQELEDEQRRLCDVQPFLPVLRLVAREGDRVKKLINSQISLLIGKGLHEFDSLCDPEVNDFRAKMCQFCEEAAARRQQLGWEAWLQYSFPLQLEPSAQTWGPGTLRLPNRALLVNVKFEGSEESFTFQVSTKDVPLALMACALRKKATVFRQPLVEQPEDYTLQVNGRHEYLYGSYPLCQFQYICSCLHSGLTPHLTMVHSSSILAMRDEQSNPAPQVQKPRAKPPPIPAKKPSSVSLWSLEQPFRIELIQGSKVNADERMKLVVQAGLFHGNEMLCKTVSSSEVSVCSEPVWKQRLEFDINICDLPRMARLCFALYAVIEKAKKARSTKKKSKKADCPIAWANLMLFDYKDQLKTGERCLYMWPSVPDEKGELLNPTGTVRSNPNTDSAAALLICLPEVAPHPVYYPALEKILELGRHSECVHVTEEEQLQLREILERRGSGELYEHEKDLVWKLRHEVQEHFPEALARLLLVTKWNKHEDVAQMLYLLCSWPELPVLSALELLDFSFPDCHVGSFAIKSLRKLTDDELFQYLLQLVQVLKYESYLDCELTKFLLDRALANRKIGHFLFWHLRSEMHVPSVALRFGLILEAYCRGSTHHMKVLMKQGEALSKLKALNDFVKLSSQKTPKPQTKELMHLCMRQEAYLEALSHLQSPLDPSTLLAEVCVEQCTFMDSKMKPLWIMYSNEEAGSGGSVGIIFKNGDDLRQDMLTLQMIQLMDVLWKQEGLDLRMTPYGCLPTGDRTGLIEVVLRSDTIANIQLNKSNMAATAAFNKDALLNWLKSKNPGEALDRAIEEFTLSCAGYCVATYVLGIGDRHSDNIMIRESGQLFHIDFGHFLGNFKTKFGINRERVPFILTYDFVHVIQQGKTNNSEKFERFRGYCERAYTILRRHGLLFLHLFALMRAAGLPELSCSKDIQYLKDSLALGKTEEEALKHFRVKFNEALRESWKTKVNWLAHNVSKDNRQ
Assay: PI3Kdelta Scintillation Proximity A3 Assay
Excerpt: [γ-33P]ATP (10 mCi/mL) was purchased from Perkin-Elmer (Waltham, Mass.). Lipid kinase substrate, D-myo-Phosphatidylinositol 4,5-bisphosphate (PtdIns(4,5)P2)D (+)-sn-1,2-di-O-octanoylglyceryl, 3-O-phospho linked (PIP2), CAS 204858-53-7, was purchased from Echelon Biosciences (Salt Lake City, Utah). PI3Kδ (p110δ/p85α) was purchased from Millipore (Bedford, Mass.). ATP, MgCl2, DTT, EDTA, MOPS and CHAPS were purchased from Sigma-Aldrich (St. Louis, Mo.). Wheat Germ Agglutinin (WGA) YSi SPA Scintillation Beads was purchased from GE healthcare life sciences (Piscataway, N.J.).The kinase reaction was conducted in polystyrene 384-well matrix white plate from Thermo Fisher Scientific in a final volume of 25 μL. Inhibitors were first diluted serially in DMSO and added to the plate wells before the addition of other reaction components. The final concentration of DMSO in the assay was 0.5%. The PI3K assays were carried out at room temperature in 20 mM MOPS, pH 6.7, 10 mM MgCl2, 5 mM DTT and CHAPS 0.03%. Reactions were initiated by the addition of ATP, the final reaction mixture consisted of 20 μM PIP2, 20 μM ATP, 0.2 μCi [γ-33P] ATP, 4 nM PI3Kδ. […] After the plate sealing, plates were shaken overnight at room temperature and centrifuged at 1800 rpm for 10 minutes, the radioactivity of the product was determined by scintillation counting on Topcount (Perkin-Elmer). […]

Structure (SMILES): CCOc1c(C(C)n2ccc(=O)c3c(N)ncnc32)cc(Cl)c(C)c1-c1ccc(C(=O)N(C)C)cc1 (stereo unspecified) [US10376513, Example 36]
- IC50: < 10 nM
